The subject of one assay is NL11. Format: cell-based, influenza A virus.
Assay [1] concerns A/Netherlands/602/09 (NL09).
Assay [2] has as its system A/Netherlands/241/11 (NL11).

Molecules are shown by their SMILES. Where “and” joins values, the source holds several entries; their conditions need not be identical. Equal entries are not always repeated.

These results are taken from publication PMC10034449, “FDA-approved Abl/EGFR/PDGFR kinase inhibitors show potent efficacy against pandemic and seasonal influenza A virus infections of human lung explants” (iScience, 2023).

Take `CN1CCN(CCOc2cc(OC3CCOCC3)c3c(Nc4c(Cl)ccc5c4OCO5)ncnc3c2)CC1` [SA, Saracatinib]: the “reduction of infectivity (anti-NP staining normalized to tissue area)” value in the assay with NL11 is > 50% and ~50%. The same molecule came in with a relative infectivity in assay [1] of 90%.

Take `COc1cc(Nc2c(C#N)cnc3cc(OCCCN4CCN(C)CC4)c(OC)cc23)c(Cl)cc1Cl` [BO, Bosutinib]: the “reduction of infectivity (anti-NP staining normalized to tissue area)” value with NL11 is > 50% and ~50%.

For the molecule `N#CC[C@H](C1CCCC1)n1cc(-c2ncnc3[nH]ccc23)cn1` [RX, Ruxolitinib], the relative infectivity stood at 203% in assay [1] and 116% in assay [2].

For the molecule `Cc1cn(-c2cc(NC(=O)c3ccc(C)c(Nc4nccc(-c5cccnc5)n4)c3)cc(C(F)(F)F)c2)cn1` [NI, Nilotinib], in the assay on NL11, the “effect on infectivity” value is reported as “limited effects on infectivity”.

On to `C=CC(=O)N1CCC[C@@H](n2nc(-c3ccc(Oc4ccccc4)cc3)c3c(N)ncnc32)C1` [IB, Ibrutinib], for which, in the assay on NL11, the “effect on infectivity” value is on record as “limited effects on infectivity” and the increase of infectivity is given as around 7%.

In the case of `CNC(=O)c1ccc(Nc2ncc(C(F)(F)F)c(NCc3nccnc3N(C)S(C)(=O)=O)n2)cc1` [DF, Defactinib], in the assay with NL11, the “reduction of infectivity (anti-NP staining normalized to tissue area)” value was > 50% and ~50%. This molecule yielded a relative infectivity in assay [1] of 180%.

On to `CC#CC(=O)N1CCC[C@H]1c1nc(-c2ccc(C(=O)Nc3ccccn3)cc2)c2c(N)nccn12` [AC, Acalabrutinib], for which the “reduction of infectivity (anti-NP staining normalized to tissue area)” value in the assay on NL11 was > 50% and ~50%.

For `C[C@@H]1CCN(C(=O)CC#N)C[C@@H]1N(C)c1ncnc2[nH]ccc12` [TF, Tofacitinib], the relative infectivity came out at 217% in assay [1] and 112% in assay [2].
